Experiments:
[1] = target: T1, C-X-C chemokine receptor type 4 (Homo sapiens, UniProt P61073); experiment: Inhibition of CXCR4 (unknown origin)
[2] = target: T1, C-X-C chemokine receptor type 4; experiment: Antagonist activity at human CXCR4 expressed in COS7 cells assessed as inhibition of [3H]inositol-phosphates formation after 90 mins by scintillation proximity-based functional assay; format: cell-based, COS-7
Outline: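 Human CXCR4 cDNA and the Gαi-to-Gαq chimera Gα∆6qi4myr were transiently co-transfected into COS-7 cells by calcium phosphate. Cells were labelled 24 h with [3H]-myo-inositol (2 µCi/mL), then exposed to graded ligand concentrations for 90 min at 37 °C in HBSS with 10 mM LiCl. Cells were lysed with 10 mM formic acid, and [3H]IPs were counted on SPA beads after 8 h. Duplicates; mean of ≥3 experiments.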

Chains of the proteins cited; added tags and fusions are not shown.
UniProt P61073, whole entry: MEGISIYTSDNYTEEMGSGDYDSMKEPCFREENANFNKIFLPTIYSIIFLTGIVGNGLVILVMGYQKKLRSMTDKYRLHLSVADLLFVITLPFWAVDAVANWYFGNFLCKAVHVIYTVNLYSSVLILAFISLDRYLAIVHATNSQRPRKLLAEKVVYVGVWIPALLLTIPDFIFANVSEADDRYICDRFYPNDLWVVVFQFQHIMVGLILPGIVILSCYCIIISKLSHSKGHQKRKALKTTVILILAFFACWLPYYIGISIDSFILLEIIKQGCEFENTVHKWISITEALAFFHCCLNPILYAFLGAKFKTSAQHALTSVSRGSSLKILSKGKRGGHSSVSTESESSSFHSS

Molecule N=C(N)NCCC[C@@H]1NC(=O)[C@@H](CCCNC(=N)N)NC(=O)[C@@H](Cc2ccc(O)cc2)NC(=O)CNC(=O)[C@H](Cc2ccc3ccccc3c2)NC1=O has an IC50 [1] of 8 nM and an EC50 [2] of 520 nM.

— ChEMBL document CHEMBL3352041, “Design, synthesis, and biological evaluation of scaffold-based tripeptidomimetic antagonists for CXC chemokine receptor 4 (CXCR4)” (Bioorg Med Chem, 2014)
